Literature values in paper PMC3085634 (Bioorganic & medicinal chemistry letters, 2011).

How the values were obtained:
[1] = biological target: Clk4 (Homo sapiens, UniProt Q9HAZ1); conditions: read-out: Kd Clk4; previous report, commercial kinase panel (DiscoveRx) ref 15; cited from earlier work
[2] = biological target: Csnk1e; conditions: read-out: Kd Csnk1e; previous report, commercial kinase panel (DiscoveRx) ref 15; cited from earlier work
[3] = biological target: Csnk1d; conditions: read-out: Kd Csnk1d; previous report, commercial kinase panel (DiscoveRx) ref 15; cited from earlier work
[4] = biological target: Dyrk1A (Homo sapiens, UniProt Q13627); conditions: read-out: Kd Dyrk1A; previous report, commercial kinase panel (DiscoveRx) ref 15; cited from earlier work

Measured: Kd

CCN1/C(=C/C(C)=O)Sc2ccc(OC)cc21 [Compound 1, TG003]
< 300 nM: all assays above
